# Where two headings read alike, the source gives them in different places.
# Chains of the proteins cited; added tags and fusions are not shown. Lines headed by an entry give the natural chain unless they say otherwise; changes in a name come on top.
# UniProt Q64663: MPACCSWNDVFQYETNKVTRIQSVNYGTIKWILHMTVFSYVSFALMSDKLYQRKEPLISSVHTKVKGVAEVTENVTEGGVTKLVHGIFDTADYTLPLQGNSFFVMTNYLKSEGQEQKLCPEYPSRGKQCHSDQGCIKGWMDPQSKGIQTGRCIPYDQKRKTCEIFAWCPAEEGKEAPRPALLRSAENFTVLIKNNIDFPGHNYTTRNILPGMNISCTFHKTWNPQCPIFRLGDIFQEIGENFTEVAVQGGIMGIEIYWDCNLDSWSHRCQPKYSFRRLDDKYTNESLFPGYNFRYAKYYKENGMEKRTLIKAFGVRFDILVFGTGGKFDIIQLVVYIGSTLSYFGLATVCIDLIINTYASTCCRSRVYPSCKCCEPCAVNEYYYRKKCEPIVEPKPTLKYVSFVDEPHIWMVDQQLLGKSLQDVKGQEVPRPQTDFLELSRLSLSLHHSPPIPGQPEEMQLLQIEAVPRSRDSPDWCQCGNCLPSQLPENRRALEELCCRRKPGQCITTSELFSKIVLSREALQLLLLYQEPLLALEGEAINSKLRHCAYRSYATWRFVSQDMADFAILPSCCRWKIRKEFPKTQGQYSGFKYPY
# UniProt Q99572: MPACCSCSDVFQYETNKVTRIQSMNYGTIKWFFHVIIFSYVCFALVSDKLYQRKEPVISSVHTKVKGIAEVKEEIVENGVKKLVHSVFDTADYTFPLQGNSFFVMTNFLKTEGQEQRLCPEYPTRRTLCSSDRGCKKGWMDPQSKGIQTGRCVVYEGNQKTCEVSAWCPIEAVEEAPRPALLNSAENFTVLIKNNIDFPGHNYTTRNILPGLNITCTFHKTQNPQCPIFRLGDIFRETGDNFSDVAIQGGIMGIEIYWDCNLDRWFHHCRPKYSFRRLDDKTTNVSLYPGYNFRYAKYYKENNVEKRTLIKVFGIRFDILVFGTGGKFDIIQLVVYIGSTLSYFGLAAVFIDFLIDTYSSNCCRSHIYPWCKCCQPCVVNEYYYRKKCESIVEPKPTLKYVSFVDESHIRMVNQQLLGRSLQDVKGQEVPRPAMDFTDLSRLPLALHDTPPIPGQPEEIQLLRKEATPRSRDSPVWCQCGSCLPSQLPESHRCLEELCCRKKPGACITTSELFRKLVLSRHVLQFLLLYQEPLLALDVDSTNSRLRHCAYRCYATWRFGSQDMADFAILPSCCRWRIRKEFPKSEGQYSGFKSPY
# Legend:
# rat P2X7 = rat P2X7 (Rattus norvegicus (Rat), UniProt Q64663); assay: Ca2+ flux (FLIPR) in 1321N1 cells expressing recombinant rat P2X7 channel; assay type: cell-based; conditions: 250 μM BzATP, Calcium-4 dye
# Method: (§1) 1321N1 cells expressing the recombinant human, rat or mouse P2X7 channel was cultured in HyQ DME/(HyClone/Dulbecco's Modified Eagle Medium) high glucose supplemented with 10% Fetal Bovine Serum (FBS) and appropriate selection marker. Cells were seeded at a density of 25000 cells/well (96-well clear bottom black walled plates) in 100 μl volume/well. On the day of the experiment, cell plates were washed with assay buffer, containing (in mM): 130 NaCl, 2 KCl, 1 CaCl2, 1 MgCl2, 10 HEPES, 5 glucose; pH 7.40 and 300 mOs. After the wash, cells were loaded with the Calcium-4 dye (Molecular Device) and incubated in the dark for 60 minutes. Test compounds were prepared at 250× the test concentration in neat DMSO. Intermediate 96-well compound plates were prepared by transferring 1.2 μL of the compound into 300 μL of assay buffer. A further 3× dilution occurred when transferring 50 μL/well of the compound plate to 100 μL/well in the cell plate. Cells were incubated with test compounds and dye for 30 minutes. Calcium dye fluorescence was monitored in FLIPR as the cells were challenged by adding 50 μL/well of BzATP (final concentration is 250 μM BzATP (human and rat) or 600 μM (mouse)). The fluorescence change was measured 180 seconds after adding the agonist.
# P2X7 [1] = biological target: T1, P2X7 (Homo sapiens (Human), UniProt Q99572); assay: Radioligand binding, human P2X7-1321N1 cell membranes, tracer tritiated A-804598
# Method: human or rat P2X7-1321 N1 cells were collected and frozen @ −80° C. On the day of the experiment, cell membrane preparations were made according to standard published methods. The total assay volume was 100 μl:10 μl compound (10×)+(b) 40 μl tracer (2.5×)+50 μl membrane (2×). The tracer used for the assay was tritiated A-804598. The compound can be prepared as described in the literature. […] The assay was terminated by filtration (GF/B filters pre-soaked with 0.3% PEI) and washed with washing buffer (Tris-HCl 50 mM). The IC50 generated in the binding assay was corrected for tracer concentration and affinity of the tracer to derive at the affinity (Ki) of the test compounds.
# P2X7 [2] = biological target: T1, P2X7; assay: Ca2+ flux (FLIPR) in 1321N1 cells expressing recombinant human P2X7 channel; assay type: cell-based; conditions: 250 μM BzATP, Calcium-4 dye
# Method: as §1
# [3] = human P2X7-1321N1 membranes, 1 hour at 4° C., IC50 corrected for tracer concentration and affinity
compound,measurement,setting,value
O=C(c1ccc(F)cc1Cl)N1CCc2c(ncnc2-c2ccn[nH]2)C1 [Example 21],IC50,rat P2X7,3210 nM
"O=C(c1cccc(C(F)(F)F)c1Cl)N1CCc2c(ncnc2-n2nccn2)C1 [Example 108, 7-{[2-Chloro-3-(trifluoromethyl)phenyl]carbonyl}-4-(2H-1,2,3-triazol-2-yl)-5,6,7,8-tetrahydropyrido[3,4-d]pyrimidine]",Ki,P2X7 [1]; [3],26.6 nM
"Cc1nc2c(c(-c3ccnn3C)n1)CC(C)N(C(=O)c1cccc(C(F)(F)F)c1Cl)C2 (stereo not drawn) [Example 73, (2-chloro-3-(trifluoromethyl)phenyl)(2,6-dimethyl-4-(1-methyl-1H-pyrazol-5-yl)-5,6-dihydropyrido[3,4-d]pyrimidin-7(8H)-yl)methanone]",Ki,P2X7 [1]; [3],126 nM
same,IC50,P2X7 [2],96.6 nM
"Cc1nc2c(c(-c3ccn[nH]3)n1)CC(C)N(C(=O)c1ccc(F)cc1C)C2 (stereo not drawn) [Example 133, (2,6-dimethyl-4-(1H-pyrazol-5-yl)-5,6-dihydropyrido[3,4-d]pyrimidin-7(8H)-yl)(4-fluoro-2-methylphenyl)methanone]",IC50,rat P2X7,2220 nM
"Cc1cccc(C(=O)N2CCc3c(ncnc3-c3ccn[nH]3)C2)c1Cl [Example 8, 7-[(2-Chloro-3-methylphenyl)carbonyl]-4-(1H-pyrazol-5-yl)-5,6,7,8-tetrahydropyrido[3,4-d]pyrimidine]",IC50,P2X7 [2],244 nM
"Cc1nc2c(c(-c3ccn[nH]3)n1)C[C@@H](C)N(C(=O)c1ccc(F)cc1Cl)C2 (single isomer, unassigned) [Example 91, (R*)-(2-chloro-4-fluorophenyl)(2,6-dimethyl-4-(1H-pyrazol-5-yl)-5,6-dihydropyrido[3,4-d]pyrimidin-7(8H)-yl)methanone]",Ki,P2X7 [1],25.1 nM
same,IC50,P2X7 [2],58.7 nM
"Cc1nc2c(c(-c3ccn[nH]3)n1)CC(C)N(C(=O)c1cccc(C(F)(F)F)c1C)C2 (stereo not drawn) [Example 77, (2,6-dimethyl-4-(1H-pyrazol-5-yl)-5,6-dihydropyrido[3,4-d]pyrimidin-7(8H)-yl)(2-methyl-3-(trifluoromethyl)phenyl)methanone]",IC50,rat P2X7,20 nM
"Cc1nc2c(c(-c3ccn[nH]3)n1)C[C@H](C)N(C(=O)c1ccc(F)c(C(F)(F)F)c1Cl)C2 (single isomer, unassigned) [Example 65, (S*)-(2-chloro-4-fluoro-3-(trifluoromethyl)phenyl)(2,6-dimethyl-4-(1H-pyrazol-5-yl)-5,6-dihydropyrido[3,4-d]pyrimidin-7(8H)-yl)methanone]",IC50,P2X7 [2],2820 nM
same,IC50,rat P2X7,1220 nM
"C[C@@H]1c2ncnc(-c3ccn[nH]3)c2CCN1C(=O)c1ccc(Cl)c(F)c1Cl (single isomer, unassigned) [Example 122, (R*)-(2,4-dichloro-3-fluorophenyl)(8-methyl-4-(1H-pyrazol-5-yl)-5,6-dihydropyrido[3,4-d]pyrimidin-7(8H)-yl)methanone]",Ki,P2X7 [1],20 nM
same,IC50,rat P2X7,128 nM
"Cc1nc2c(c(-c3ccn[nH]3)n1)CC(C)N(C(=O)c1cccc(Cl)c1Cl)C2 (stereo not drawn) [Example 67, (2,3-dichlorophenyl)(2,6-dimethyl-4-(1H-pyrazol-5-yl)-5,6-dihydropyrido[3,4-d]pyrimidin-7(8H)-yl)methanone]",Ki,P2X7 [1]; [3],12.6 nM
same,IC50,P2X7 [2],13.5 nM
"Cc1nc2c(c(-c3ccn[nH]3)n1)C[C@H](C)N(C(=O)c1cccc(C(F)(F)F)c1F)C2 (single isomer, unassigned) [Example 76, (S*)-(2,6-dimethyl-4-(1H-pyrazol-5-yl)-5,6-dihydropyrido[3,4-d]pyrimidin-7(8H)-yl)(2-fluoro-3-(trifluoromethyl)phenyl)methanone]",IC50,P2X7 [2],406 nM
same,IC50,rat P2X7,126 nM
"C[C@@H]1c2ncnc(-c3ccn[nH]3)c2CCN1C(=O)c1ccc(F)c(Cl)c1Cl (single isomer, unassigned) [Example 119, (R*)-(2,3-dichloro-4-fluorophenyl)(8-methyl-4-(1H-pyrazol-5-yl)-5,6-dihydropyrido[3,4-d]pyrimidin-7(8H)-yl)methanone]",Ki,P2X7 [1],12.6 nM
"O=C(c1ccc(F)c(Cl)c1Cl)N1CCc2c(ncnc2-c2cccc(F)n2)C1 [Example 129, (2,3-dichloro-4-fluorophenyl)(4-(6-fluoropyridin-2-yl)-5,6-dihydropyrido[3,4-d]pyrimidin-7(8H)-yl)methanone]",IC50,P2X7 [2],106 nM
same,IC50,rat P2X7,1060 nM
"Cc1nc2c(c(-c3ccccc3)n1)CCN(C(=O)c1cccc(C(F)(F)F)c1Cl)C2 [Example 32, 7-{[2-Chloro-3-(trifluoromethyl)phenyl]carbonyl}-2-methyl-4-phenyl-5,6,7,8-tetrahydropyrido[3,4-d]pyrimidine]",IC50,rat P2X7,4050 nM
"Nc1nc2c(c(-c3ccccc3)n1)CCN(C(=O)c1cccc(Cl)c1Cl)C2 [Example 29, 7-[(2,3-Dichlorophenyl)carbonyl]-4-phenyl-5,6,7,8-tetrahydropyrido[3,4-d]pyrimidin-2-amine]",IC50,rat P2X7,1970 nM
"Cc1nc2c(c(-c3ccn[nH]3)n1)C[C@@H](C)N(C(=O)c1ccc(F)c(C(F)(F)F)c1Cl)C2 (single isomer, unassigned) [Example 66, (R*)-(2-chloro-4-fluoro-3-(trifluoromethyl)phenyl)(2,6-dimethyl-4-(1H-pyrazol-5-yl)-5,6-dihydropyrido[3,4-d]pyrimidin-7(8H)-yl)methanone]",IC50,rat P2X7,10 nM
"O=C(c1cccc(C(F)(F)F)c1Cl)N1CCc2c(ncnc2-c2ccc[nH]2)C1 [Example 42, 7-{[2-Chloro-3-(trifluoromethyl)phenyl]carbonyl}-4-(1H-pyrrol-2-yl)-5,6,7,8-tetrahydropyrido[3,4-d]pyrimidine]",IC50,rat P2X7,2510 nM
"C[C@H]1c2ncnc(-c3ccn[nH]3)c2CCN1C(=O)c1ccc(F)c(C(F)(F)F)c1Cl (single isomer, unassigned) [Example 117, (S*)-(2-chloro-4-fluoro-3-(trifluoromethyl)phenyl)(8-methyl-4-(1H-pyrazol-5-yl)-5,6-dihydropyrido[3,4-d]pyrimidin-7(8H)-yl)methanone]",IC50,P2X7 [2],968 nM
same,IC50,rat P2X7,1230 nM
"Cc1nc2c(c(-c3ccn[nH]3)n1)CC(C)N(C(=O)c1ccc(Cl)c(F)c1Cl)C2 (stereo not drawn) [Example 70, (2,4-dichloro-3-fluorophenyl)(2,6-dimethyl-4-(1H-pyrazol-5-yl)-5,6-dihydropyrido[3,4-d]pyrimidin-7(8H)-yl)methanone]",IC50,rat P2X7,12.4 nM
"Cc1nc2c(c(-c3ccn[nH]3)n1)C[C@@H](C)N(C(=O)c1ccc(Cl)cc1F)C2 (single isomer, unassigned) [Example 88, (R*)-(4-chloro-2-fluorophenyl)(2,6-dimethyl-4-(1H-pyrazol-5-yl)-5,6-dihydropyrido[3,4-d]pyrimidin-7(8H)-yl)methanone]",IC50,rat P2X7,8770 nM
"Cc1nc2c(c(-c3ccn[nH]3)n1)C[C@H](C)N(C(=O)c1ccc(F)cc1Cl)C2 (single isomer, unassigned) [Example 92, (S*)-(2-chloro-4-fluorophenyl)(2,6-dimethyl-4-(1H-pyrazol-5-yl)-5,6-dihydropyrido[3,4-d]pyrimidin-7(8H)-yl)methanone]",IC50,P2X7 [2],1590 nM
"Cc1nc2c(c(-c3ccc(F)cc3)n1)CCN(C(=O)c1cccc(Cl)c1Cl)C2 [Example 28, 7-[(2,3-Dichlorophenyl)carbonyl]-4-(4-fluorophenyl)-2-methyl-5,6,7,8-tetrahydropyrido[3,4-d]pyrimidine]",IC50,P2X7 [2],452 nM
"O=C(c1cccc(C(F)(F)F)c1Cl)N1CCc2c(nc(C(F)(F)F)nc2-c2ccn[nH]2)C1 [Example 60, (4-(1H-pyrazol-5-yl)-2-(trifluoromethyl)-5,6-dihydropyrido[3,4-d]pyrimidin-7(8H)-yl)(2-chloro-3-(trifluoromethyl)phenyl)methanone]",IC50,rat P2X7,268 nM
"Cc1nc2c(c(-c3ccn[nH]3)n1)CC(C)N(C(=O)c1ccc(Cl)cc1F)C2 (stereo not drawn) [Example 87, (4-chloro-2-fluorophenyl)(2,6-dimethyl-4-(1H-pyrazol-5-yl)-5,6-dihydropyrido[3,4-d]pyrimidin-7(8H)-yl)methanone]",IC50,rat P2X7,15.2 nM
"C[C@H]1c2ncnc(-c3ccn[nH]3)c2CCN1C(=O)c1ccc(Cl)c(F)c1Cl (single isomer, unassigned) [Example 123, (S*)-(2,4-dichloro-3-fluorophenyl)(8-methyl-4-(1H-pyrazol-5-yl)-5,6-dihydropyrido[3,4-d]pyrimidin-7(8H)-yl)methanone]",Ki,P2X7 [1],501 nM
same,IC50,rat P2X7,1000 nM
"Cc1nc2c(c(-c3ccn[nH]3)n1)C[C@@H](C)N(C(=O)c1cccc(C(F)(F)F)c1F)C2 (single isomer, unassigned) [Example 75, (R*)-(2,6-dimethyl-4-(1H-pyrazol-5-yl)-5,6-dihydropyrido[3,4-d]pyrimidin-7(8H)-yl)(2-fluoro-3-(trifluoromethyl)phenyl)methanone]",IC50,P2X7 [2],12.7 nM
same,IC50,rat P2X7,7.7 nM

# — patent US9096596B2 (Janssen Pharmaceutica NV, priority 2013, dated 2015)
